± gives the expanded uncertainty stated by the source.

This data set in a line: activity coefficient (dimensionless); of the first substance listed, at infinite dilution; xn = mol fraction of the nth substance listed. The conditions noted are these: 101.33 kPa, Liquid, Chromatography, x1 = 0.

Turning to `CCCCOCCCC` [dibutyl ether] + CCCCCCCCCC[N+](C)(C)CCCCCCCCCC.F[B-](F)(F)F, the activity coefficient (323 K) came to 2.87 ± 0.3, the activity coefficient (338 K) came to 2.65 ± 0.28 and the activity coefficient (353 K) came out at 3.58 ± 0.38.
In the same order, the values of `CCCCOCCCC` [dibutyl ether] + CCCCCCCCCC[N+](C)(C)CCCCCCCCCC.[O-][Cl+3]([O-])([O-])[O-] are 3.12 ± 0.33, 4.5 ± 0.47 and 4.42 ± 0.46.

The values are drawn from the NIST ThermoML archive (doi:10.1016/j.fluid.2018.11.011).
